For three molecules, IC50 and EC50 results are on record in patent publication US10703733B2, “MCL-1 inhibitors” (Gilead Sciences, Inc., priority 2018, dated 2020).

Sequences of proteins named here, by UniProt entry; tags and fusion partners are left off. Residues count along the entry.
UniProt Q07820, 171-327 limits assumed: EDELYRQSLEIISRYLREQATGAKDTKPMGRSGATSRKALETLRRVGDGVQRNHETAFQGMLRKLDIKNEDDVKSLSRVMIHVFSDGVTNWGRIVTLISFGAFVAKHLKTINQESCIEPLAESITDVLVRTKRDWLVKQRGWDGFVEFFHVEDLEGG

Assay [1] concerns the target MCL-1/Bim interaction (recombinant human MCL-1 protein, residues 171-327; biotinylated human Bim peptide, residues 51-76) (Homo sapiens (Human), UniProt Q07820). The assay can be described thus: MCL-1/Bim Binding AlphaLISA Assay. As to conditions: read-out: MCL-1/Bim IC50, 0.0625 nM 6xHis-Mcl-1 (171-327), 0.0625 nM biotinylated-Bim peptide. (Alpha assays give light when donor and acceptor beads are brought close together.)

Assay [2] has as its system SKBR3 cells. The assay can be described thus: SKBR3 Cell Viability Assay (CellTiter Glo). As to conditions: read-out: MCL-1 CV SKBR3 EC50, 72 hours, CellTiter Glo luminescence. In general terms: ATP-based viability assays read luminescence as a measure of living cells.

Molecules are shown by their SMILES.

In the case of `CCC(=O)N[S@]1(=O)=NC(=O)c2ccc3c(c2)N(C[C@@H]2CC[C@H]2[C@@H](OC)/C=C/C[C@H](C)[C@H]1C)C[C@@]1(CCCc2cc(Cl)ccc21)CO3`, the IC50 in assay [1] came out at 0.9 nM. Also, the EC50 in assay [2] was 1700 nM. On the same counts, the results for `COCCC(=O)N[S@@]1(=O)=NC(=O)c2ccc3c(c2)N(C[C@@H]2CC[C@H]2[C@@H](OC)/C=C/CCC1)C[C@@]1(CCCc2cc(Cl)ccc21)CO3` are 0.3 nM and 894 nM. For the molecule `COc1c(C(=O)N[S@@]2(=O)=NC(=O)c3ccc4c(c3)N(C[C@@H]3CC[C@H]3[C@@H](OC)/C=C/C[C@H](C)C2)C[C@@]2(CCCc3cc(Cl)ccc32)CO4)cn(C)[n+]1[O-]`, the IC50 in assay [1] was found to be 0.045 nM.

The term EC50 denotes the concentration needed to bring the measured effect to its halfway point.
